The list shows a part of the results, in another mix than the full data. Records with an inconclusive call do not appear. Active and inactive are the calls of the source.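 How the source made its calls: active means fitted activation curve crossing 40% at a concentration no higher than the sample's top valid tested dose; inconclusive means flat fitted curve at 30% to 70% activation, or poor curve fit; inactive means signal decrease, flat curve within 30%, or the rest.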
Assay: HSF-1 reporter activators over prolonged exposure, confirmation, cell-based, mouse, luciferase, cherry-pick, dose (AID 602296);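 further: test compounds applied by themselves with no MG132 co-treatment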
Details: NIH3T3-HGL HSF-1 response element luciferase, 48 h; at 26 µM (top of the series)

SMILES | activation
CCc1nc2c(n1)c1c(non1O)c1c2no[n+]1[O-] | inactive: -100%
